Data published in ChEMBL document CHEMBL5113531, “Discovery of Potent Cholinesterase Inhibition-Based Multi-Target-Directed Lead Compounds for Synaptoprotection in Alzheimer's Disease” (J Med Chem, 2022).

Chains of the proteins cited; added tags and fusions are not shown.
UniProt P06276, whole entry: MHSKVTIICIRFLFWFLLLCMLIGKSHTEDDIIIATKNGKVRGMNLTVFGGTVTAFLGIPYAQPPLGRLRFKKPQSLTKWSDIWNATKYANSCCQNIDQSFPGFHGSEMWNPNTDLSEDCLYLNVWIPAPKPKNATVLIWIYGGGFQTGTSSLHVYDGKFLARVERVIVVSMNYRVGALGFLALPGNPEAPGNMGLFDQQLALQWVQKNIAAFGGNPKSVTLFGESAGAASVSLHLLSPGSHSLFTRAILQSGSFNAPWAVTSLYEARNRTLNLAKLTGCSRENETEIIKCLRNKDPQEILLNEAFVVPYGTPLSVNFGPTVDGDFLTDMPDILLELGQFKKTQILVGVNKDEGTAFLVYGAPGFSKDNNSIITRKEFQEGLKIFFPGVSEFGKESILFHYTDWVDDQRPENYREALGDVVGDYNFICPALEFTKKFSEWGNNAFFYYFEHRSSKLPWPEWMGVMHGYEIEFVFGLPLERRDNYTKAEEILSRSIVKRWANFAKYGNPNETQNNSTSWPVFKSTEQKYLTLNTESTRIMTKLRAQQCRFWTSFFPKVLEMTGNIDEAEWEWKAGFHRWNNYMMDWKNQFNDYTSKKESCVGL

Target: Cholinesterase (Homo sapiens, UniProt P06276)
Assay: Inhibition of human recombinant BuChe using butyrylthiocholine iodide as substrate incubated for 10 mins by DTNB reagent based Ellman's method

CCN(C)C(=O)Oc1cccc([C@H](C)N(C)C)c1 [RIVASTIGMINE]
IC50: 14.2 µM
